Most compounds without a hit are left out; they make up all but 0.46% or so of the library.
GIV-Gai inh: inhibitors of GIV peptide binding to Galpha-i3, primary screen, biochemical, fluorescence polarization, FITC-GIV GBA peptide, rat Galphai3 | 90 min; active compounds read low; scaled: aluminum fluoride 0%, vehicle 100% | percent of control (FP), % (test concentration not listed) | hit rate 0.42% among 210,000;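 active = replicate mean at 85% of control or lower, very high polarization wells dropped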;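 also: lower values mean more displacement of the GIV peptide from Galpha-i3; wells of about 15 µL received 100 nL stock; the first replicate is given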
HCMV NEC inh: cytomegalovirus nuclear egress complex inhibition; HTRF UL50-UL53 interaction, normalized percent inhibition; inhibition, % (no concentration beside the values); actives 0.15% (n = 190,000); in the data active = inhibition above about 27%, passing the limit was not always enough
Starred values were filed as active, the others as inactive.

What do the screens show for `Nc1c(Br)cc(Br)c2cccnc12`?
GIV-Gai inh: 97.1; HCMV NEC inh: 57.6*

Results for Nc1nc(Cl)cc(N2CCOCC2)n1 ?
GIV-Gai inh: 103.9; HCMV NEC inh: -13.0

Results for CCCCN(C)S(=O)(=O)c1ccc(C(=O)Nc2sc3c(c2C(=O)OCC)CCN(C(C)C)C3)cc1 ?
GIV-Gai inh: 140.5

What do the screens show for `Cc1sc2nc(N)sc(=O)c2c1C`?
HCMV NEC inh: -23.6

What do the screens show for `COc1ccc(CCN(C)c2nc(N)c3c(N)nc(SCC(=O)O)cc3c2C#N)cc1OC`?
HCMV NEC inh: 82.4*

Results for COc1cc2c(C#N)c(N(C)CCc3ccc(OC)c(OC)c3)nc(N)c2c(N)n1 ?
HCMV NEC inh: -11.1

What do the screens show for `O=C(c1nn2c(C(F)(F)F)cc(-c3ccco3)nc2c1Br)N1CCCCC1`?
GIV-Gai inh: 104.2

How did CCC1CCCCN1S(=O)(=O)c1cc2c3c(c1)CC(=O)N3CCC2 (stereo not given) do in these assays?
GIV-Gai inh: 93.1

How did Cn1c(=O)c2[nH]c(SCC(=O)C(C)(C)C)nc2n(C)c1=O do in these assays?
HCMV NEC inh: -10.6

Results for CC(Sc1nc2c([nH]1)c(=O)n(C)c(=O)n2C)C(=O)O (stereo not given) ?
GIV-Gai inh: 85.0*; HCMV NEC inh: -10.7

What do the screens show for `O=C(Nc1nc2n(n1)C(c1ccccc1)C=C(c1ccccc1)N2)c1ccco1` (stereo not given)?
GIV-Gai inh: 130.4; HCMV NEC inh: -33.1

What do the screens show for `O=C(O)CCC(=O)Nc1nc2n(n1)C(c1ccccc1)C=C(c1ccccc1)N2` (stereo not given)?
GIV-Gai inh: 83.2*; HCMV NEC inh: -26.2

Results for Fc1ccc2c(c1)-c1nocc1CS2 ?
GIV-Gai inh: 102.5; HCMV NEC inh: -36.2

How did Cc1cccc2c1NC1(CCCC1)CC2C (stereo not given) do in these assays?
GIV-Gai inh: 98.7; HCMV NEC inh: -23.0

Results for CCCN1C(=O)/C(=C/C=C2/Oc3ccccc3N2CCC(=O)O)N(CCO)C1=S ?
GIV-Gai inh: -18.2*

How did CCN1/C(=C/C=C2\SC(=S)N(C)C2=O)Oc2ccccc21 do in these assays?
GIV-Gai inh: 161.8; HCMV NEC inh: -50.4

What do the screens show for `Cc1ccc(NC(=O)CN2N=C(c3ccccc3)c3ccccc3S2(=O)=O)cc1`?
GIV-Gai inh: 102.1; HCMV NEC inh: -14.1

How did CCN1c2ccccc2C(=O)CS1(=O)=O do in these assays?
GIV-Gai inh: 102.7; HCMV NEC inh: -14.5

What do the screens show for `N#Cc1nc2c(nc1C#N)-c1ccccc1C2=O`?
GIV-Gai inh: 89.8; HCMV NEC inh: -5.0

What do the screens show for `O=C1c2ccccc2-c2nc3nnnn3nc21`?
HCMV NEC inh: 102.6*

The closing 6 entries of the part above come first, to join the parts:
Results for CCCN1C(=O)/C(=C/C=C2/Oc3ccccc3N2CCC(=O)O)N(CCO)C1=S ?
GIV-Gai inh: -18.2*

How did CCN1/C(=C/C=C2\SC(=S)N(C)C2=O)Oc2ccccc21 do in these assays?
GIV-Gai inh: 161.8; HCMV NEC inh: -50.4

What do the screens show for `Cc1ccc(NC(=O)CN2N=C(c3ccccc3)c3ccccc3S2(=O)=O)cc1`?
GIV-Gai inh: 102.1; HCMV NEC inh: -14.1

How did CCN1c2ccccc2C(=O)CS1(=O)=O do in these assays?
GIV-Gai inh: 102.7; HCMV NEC inh: -14.5

What do the screens show for `N#Cc1nc2c(nc1C#N)-c1ccccc1C2=O`?
GIV-Gai inh: 89.8; HCMV NEC inh: -5.0

What do the screens show for `O=C1c2ccccc2-c2nc3nnnn3nc21`?
HCMV NEC inh: 102.6*

What do the screens show for `CC(CN(C)Cc1ccccc1)OC(=O)c1cccs1` (stereo not given)?
GIV-Gai inh: 97.7; HCMV NEC inh: -11.3

Results for CCn1c(C)[n+](CC)c2ccc(Cl)cc21 ?
HCMV NEC inh: 7.0

Results for CN1/C(=C\C(=O)c2ccccc2)C(C)(C)c2ccccc21 ?
HCMV NEC inh: 23.0

What do the screens show for `CC[n+]1c(/C=C/C=C2\N(C)c3ccccc3C2(C)C)n(-c2ccccc2)c2cc(Cl)ccc21`?
GIV-Gai inh: -32.2*

Results for CCn1c(/C=C/C=C2\N(C)c3ccccc3C2(C)C)[n+](Cc2ccccc2)c2ccccc21 ?
GIV-Gai inh: -32.2*

Results for CN1/C(=C/C=C/C=C/C=[N+](C)c2ccccc2)C(C)(C)c2ccccc21 ?
GIV-Gai inh: 257.7

Results for CC[n+]1c(/C=C/C=C2\N(C)c3ccccc3C2(C)C)n(-c2ccccc2)c2ccc(C)cc21 ?
GIV-Gai inh: -32.2*

How did O=C(NCC(=O)N1CCCc2ccccc21)C1CCCCC1 do in these assays?
HCMV NEC inh: -13.9

Results for CCO/C=C1\N=C(c2ccccc2)OC1=O ?
HCMV NEC inh: 1.5

What do the screens show for `CCN(C(=O)c1ccc(OC(C)=O)cc1)c1ccccc1C`?
HCMV NEC inh: -6.8

Results for Cc1ccccc1Nc1nn2c(=O)c3ccc(C(=O)N4CCc5ccccc5C4)cc3nc2s1 ?
GIV-Gai inh: 103.1; HCMV NEC inh: -27.9

Results for O=C(c1ccc(Nc2nn3c(=O)c4ccccc4nc3s2)cc1)N1CCc2ccccc2C1 ?
GIV-Gai inh: 101.2; HCMV NEC inh: 56.5*

How did O=C(Cc1ccccc1)Oc1ccc(N=Cc2cccs2)cc1 do in these assays?
HCMV NEC inh: -20.6

How did CCOC(=O)c1c2c3c(cccc3[nH]c1=O)C(=O)c1ccccc1-2 do in these assays?
HCMV NEC inh: -53.1

Results for Cc1ccc2c3c(c(N)c(=O)[nH]c13)-c1ccccc1C2=O ?
GIV-Gai inh: 75.5*

What do the screens show for `CC1CCN(c2cc(NCc3ccccc3)c3c4c(onc24)-c2ccccc2C3=O)CC1`?
GIV-Gai inh: -4.4*; HCMV NEC inh: -71.2

What do the screens show for `CCNc1cc(N2CCC3(CC2)OCCO3)c2noc3c2c1C(=O)c1ccccc1-3`?
GIV-Gai inh: 240.2; HCMV NEC inh: -121.0

What do the screens show for `Cc1ccccc1Nc1cc(N2CCCC2)c2noc3c2c1C(=O)c1ccccc1-3`?
GIV-Gai inh: 109.4

What do the screens show for `O=C1c2ccccc2-c2onc3c(N4CCN(C5CCCCC5)CC4)cc(NCCO)c1c23`?
GIV-Gai inh: 100.0; HCMV NEC inh: -135.6

Results for CC(C)Nc1cc(N2CCN(Cc3ccc4c(c3)OCO4)CC2)c2noc3c2c1C(=O)c1ccccc1-3 ?
GIV-Gai inh: -31.4*; HCMV NEC inh: -64.0

What do the screens show for `CCNc1cc(N2CCOCC2)c2noc3c2c1C(=O)c1ccccc1-3`?
GIV-Gai inh: -31.4*; HCMV NEC inh: -101.5

What do the screens show for `CC(C)CNc1cc(N2CCC(C)CC2)c2noc3c2c1C(=O)c1ccccc1-3`?
GIV-Gai inh: 198.3; HCMV NEC inh: -53.1

How did CN(C)CCCNc1cc(N2CCN(C3CCCCC3)CC2)c2noc3c2c1C(=O)c1ccccc1-3 do in these assays?
GIV-Gai inh: -7.2*; HCMV NEC inh: -150.9

What do the screens show for `O=C1CN(CC(=O)Nc2ccc(SC(F)F)cc2)CCN1`?
HCMV NEC inh: -5.3

What do the screens show for `CN1C(C(=O)Nc2sc3c(c2C(N)=O)CCCC3)=CC(c2ccc(F)cc2)=NS1(=O)=O`?
GIV-Gai inh: 103.5; HCMV NEC inh: -11.4

Results for Cc1ccc(C)c(-c2csc(=Nc3ccc(F)cc3)n2CCc2ccccc2)c1 ?
GIV-Gai inh: 102.8

How did COC(=O)CCC(=O)N1CCN(c2nc3ccc(C)cc3cc2-c2noc(-c3ccccc3)n2)CC1 do in these assays?
GIV-Gai inh: 104.5; HCMV NEC inh: -28.1

Results for O=CN1CCN(C(=O)Cc2ccc(Cl)cc2)CC1 ?
HCMV NEC inh: -7.9

Results for CCCc1c(C(=O)Nc2ncn[nH]2)cnn1-c1ccccc1 ?
GIV-Gai inh: 96.0; HCMV NEC inh: -4.9

What do the screens show for `CN1CCN(C(=O)c2ccc3c(c2)S(=O)(=O)c2ccccc2C3=O)CC1`?
HCMV NEC inh: -93.3

What do the screens show for `O=c1c2ccccc2n2c(=O)n(Cc3ccccc3)nc2n1CCc1ccccc1`?
GIV-Gai inh: 98.2; HCMV NEC inh: -16.3

Results for Cc1ccccc1Nc1cc(N2CCCCC2)c2noc3c2c1C(=O)c1ccccc1-3 ?
GIV-Gai inh: 107.0

What do the screens show for `CC1CCN(c2cc(NC(C)C)c3c4c(onc24)-c2ccccc2C3=O)CC1`?
GIV-Gai inh: -4.4*; HCMV NEC inh: -117.3

Results for O=C1c2ccccc2-c2onc3c(Br)cc(NC4CCCCC4)c1c23 ?
GIV-Gai inh: 85.8; HCMV NEC inh: -20.8

Bioassay records from PubChem.
